Reference: ChEMBL document CHEMBL4602710 (ACS Med Chem Lett, 2020)

Columns and labels:
[1] = molecular target: T1, Tyrosine-protein kinase SYK (Homo sapiens, UniProt P43405); assay: Inhibition of SYK (unknown origin) in B cells assessed as reduction in alpha IgM-stimulated B cells activation by measuring reduction in CD86 expression
[2] = molecular target: T1, Tyrosine-protein kinase SYK; assay: Inhibition of SYK (unknown origin) in B cells assessed as reduction in alpha IgM-stimulated B cells activation by measuring reduction in CD69 expression
[3] = molecular target: T1, Tyrosine-protein kinase SYK; assay: Inhibition of SYK (unknown origin) in macrophages assessed as reduction in immune complex-stimulated IL-6 secretion
[4] = molecular target: T1, Tyrosine-protein kinase SYK; assay: Inhibition of SYK (unknown origin) in B cells assessed as reduction in alpha IgM-stimulated ERK phosphorylation at T202/Y204 residue
[5] = molecular target: T1, Tyrosine-protein kinase SYK; assay: Inhibition of SYK (unknown origin) in B cells assessed as reduction in alpha IgM-stimulated MEK phosphorylation at S217/S221 residue
[6] = molecular target: T1, Tyrosine-protein kinase SYK; assay: Inhibition of SYK (unknown origin) in B cells assessed as reduction in alpha IgM-stimulated AKT phosphorylation at S473 residue
[7] = molecular target: T1, Tyrosine-protein kinase SYK; assay: Inhibition of SYK (unknown origin) in macrophages assessed as reduction in immune complex-stimulated IL-1 beta secretion
[8] = molecular target: T1, Tyrosine-protein kinase SYK; assay: Inhibition of SYK (unknown origin) in macrophages assessed as reduction in immune complex-stimulated TNFalpha secretion
[9] = molecular target: T1, Tyrosine-protein kinase SYK; assay: Inhibition of SYK in human whole blood assessed as reduction in anti-FCepsilonR1 mAb-induced basophil activation by measuring decrease in CD63 surface expression incubated for 60 mins followed by anti-FCepsilonR1 mAb stimulation for 20 mins by flow cytometry analysis; type: tissue-based
[10] = molecular target: T1, Tyrosine-protein kinase SYK; assay: Inhibition of SYK (unknown origin) in B cells assessed as reduction in alpha IgM-stimulated BTK phosphorylation at Y223 residue
[11] = molecular target: T1, Tyrosine-protein kinase SYK; assay: Inhibition of SYK in human Ramos cells assessed as reduction in antihuman IgM F(ab)2-induced phosphorylation of BLNK at Y96 residue preincubated for 1 hr followed by antihuman IgM F(ab)2 stimulation for 5 mins by MSD high bind plate assay; type: cell-based

- EC50 [1]: 164 nM
- EC50 [2]: 112 nM
- EC50 [3]: 700 nM
- EC50 [4]: 37 nM
- EC50 [5]: 51 nM
- EC50 [6]: 34 nM
- EC50 [7]: 90 nM
- EC50 [8]: 180 nM
- EC50 [9]: 73 to 76 nM
- EC50 [10]: 26 nM
- EC50 [11]: 24 nM
SMILES: Nc1cncc(-c2cn3ccnc3c(Nc3ccc(N4CCN(C5COC5)CC4)cc3)n2)n1 [LANRAPLENIB]
